# Target: T1, hATP13A4 (Homo sapiens, UniProt Q4VNC1)
# T1 construct: gene ATP13A4; solubilised in DDM
# T1 sequence (Q4VNC1 1-1196): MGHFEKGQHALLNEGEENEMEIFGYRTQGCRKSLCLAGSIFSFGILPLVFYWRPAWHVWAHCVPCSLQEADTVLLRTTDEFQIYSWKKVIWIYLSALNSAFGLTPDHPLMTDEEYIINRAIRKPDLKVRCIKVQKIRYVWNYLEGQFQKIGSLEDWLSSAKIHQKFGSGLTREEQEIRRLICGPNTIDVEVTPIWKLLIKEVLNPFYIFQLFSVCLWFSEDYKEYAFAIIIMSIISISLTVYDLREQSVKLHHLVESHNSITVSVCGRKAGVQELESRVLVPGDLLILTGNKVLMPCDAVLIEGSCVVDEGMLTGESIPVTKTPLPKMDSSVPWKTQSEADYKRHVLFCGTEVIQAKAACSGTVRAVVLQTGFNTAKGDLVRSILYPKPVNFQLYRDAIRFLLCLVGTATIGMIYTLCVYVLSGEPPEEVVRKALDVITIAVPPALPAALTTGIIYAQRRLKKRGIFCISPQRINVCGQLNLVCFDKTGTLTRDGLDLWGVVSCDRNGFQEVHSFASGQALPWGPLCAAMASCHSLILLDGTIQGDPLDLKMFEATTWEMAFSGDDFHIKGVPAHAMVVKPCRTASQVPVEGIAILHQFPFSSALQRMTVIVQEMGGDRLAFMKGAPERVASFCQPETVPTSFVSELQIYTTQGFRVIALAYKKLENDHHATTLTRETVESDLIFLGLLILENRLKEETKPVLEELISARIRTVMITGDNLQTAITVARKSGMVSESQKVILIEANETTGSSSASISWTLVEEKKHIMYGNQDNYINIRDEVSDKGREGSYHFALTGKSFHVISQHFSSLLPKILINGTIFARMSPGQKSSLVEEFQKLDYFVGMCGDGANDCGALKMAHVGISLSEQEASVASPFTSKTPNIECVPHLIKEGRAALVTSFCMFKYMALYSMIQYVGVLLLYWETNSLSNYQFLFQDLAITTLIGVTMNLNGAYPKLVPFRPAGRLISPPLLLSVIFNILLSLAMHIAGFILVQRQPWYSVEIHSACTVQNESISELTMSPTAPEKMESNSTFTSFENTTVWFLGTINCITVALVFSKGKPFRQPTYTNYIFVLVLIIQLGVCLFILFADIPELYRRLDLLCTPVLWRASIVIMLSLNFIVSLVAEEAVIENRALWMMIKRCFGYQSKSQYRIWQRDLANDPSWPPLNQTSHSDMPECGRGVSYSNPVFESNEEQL
# Assay: ADP-Glo Max ATPase assay, dose-response
# Assay type: biochemical
# Settings: 5 mM ATP, 11 mM MgCl2, 100 mM KCl, MOPS-KOH pH 7, 37 °C, 0.001% DDM
compound,measurement,value
"NCCCCN [PUT, putrescine]",ATPase stimulation,"Putrescine, spermidine, spermine, cadaverine, and acetylated polyamine derivatives each stimulated ATPase activity"

# From publication PMC13534584, “ATP13A4 gates extracellular polyamine levels to control excitatory synaptogenesis” (Nature Communications, 2026)
